Experimental data as given in publication PMC8200345 (American Journal of Clinical Dermatology, 2021).

How the values were obtained:
[1] = human, in vivo

SMILES: N#CC[C@H](C1CCCC1)n1cc(-c2ncnc3[nH]ccc23)cn1 [ruxolitinib]
- Change in mean platelet volume (phase III studies combined): No change
- Correlation between ruxolitinib Css quartiles and hemoglobin (phase III studies combined): no correlation
- Transient increase in platelet count, change from baseline (week 2, return to baseline by week 4): < 30%
- Dose-PK model: exponent on transformed %BSA, estimate [1]: 0.602
